Measurements taken from patent US9440982B2 (Eolas Therapeutics, Inc., priority 2012, dated 2016).
Where two headings read alike, the source gives them in different places.

Sequences of proteins named here, by UniProt entry; tags and fusion partners are left off.
UniProt O43614, whole entry: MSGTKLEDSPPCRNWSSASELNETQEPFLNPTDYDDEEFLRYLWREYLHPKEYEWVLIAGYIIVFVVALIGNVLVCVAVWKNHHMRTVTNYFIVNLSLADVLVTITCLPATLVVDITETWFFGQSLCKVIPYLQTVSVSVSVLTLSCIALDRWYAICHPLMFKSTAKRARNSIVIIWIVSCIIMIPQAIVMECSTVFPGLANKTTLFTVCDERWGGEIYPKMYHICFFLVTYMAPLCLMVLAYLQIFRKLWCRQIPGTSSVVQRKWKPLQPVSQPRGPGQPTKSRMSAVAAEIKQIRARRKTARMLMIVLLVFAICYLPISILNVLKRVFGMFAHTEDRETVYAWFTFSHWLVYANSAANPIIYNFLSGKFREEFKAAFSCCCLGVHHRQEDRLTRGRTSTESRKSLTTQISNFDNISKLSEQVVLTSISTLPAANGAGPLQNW
UniProt O43613, whole entry: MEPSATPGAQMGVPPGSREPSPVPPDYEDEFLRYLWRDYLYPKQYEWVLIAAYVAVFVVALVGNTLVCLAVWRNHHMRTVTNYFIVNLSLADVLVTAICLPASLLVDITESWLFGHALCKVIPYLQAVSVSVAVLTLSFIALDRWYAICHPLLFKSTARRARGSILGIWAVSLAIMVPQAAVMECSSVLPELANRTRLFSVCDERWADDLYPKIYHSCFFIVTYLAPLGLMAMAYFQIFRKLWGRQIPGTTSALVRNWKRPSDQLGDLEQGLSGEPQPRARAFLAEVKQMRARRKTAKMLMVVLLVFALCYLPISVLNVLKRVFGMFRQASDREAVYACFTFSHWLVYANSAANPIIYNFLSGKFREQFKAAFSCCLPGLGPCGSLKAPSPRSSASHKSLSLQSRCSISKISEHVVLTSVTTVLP

Legend:
[1] = biological target: T1, OX2 (Homo sapiens, UniProt O43614); experiment: Orexin receptor cell-based functional assay, [Ca2+]i by FLIPR, CHO-OX2 cells; details: CHO-OX2 cells, EC90 of OXA
T1 construct: expressed in transfected cells; host or cells: CHO (CHO-OX2, kept under selection antibiotic)

[2] = biological target: T2, OX1 (Homo sapiens, UniProt O43613); experiment: Orexin receptor cell-based functional assay, [Ca2+]i by FLIPR, CHO-OX1 cells; details: Table 2, EC90 of OXA, read-out: IC50 Bioactivity OX1
T2 construct: expressed in transfected cells; host or cells: CHO (CHO-OX1, kept under selection antibiotic)

[3] = [Ca2+]i by FLIPR, antagonist dose-range 0.1 nM-10 μM, read-out: OX2

SMILES	IC50 ([1]; Table 2, read-out: IC50 Bioactivity OX2)	IC50 [2]	IC50 [1, 3]
Cc1nc(-c2ccccc2)c(C(=O)N2CC(F)(F)CCC2CNC(=O)c2cccc3cccnc23)s1 (racemic) [Example 34, N-((5,5-Difluoro-1-(2-methyl-4-phenylthiazole-5-carbonyl)piperidin-2-yl)methyl)quinoline-8-carboxamide]	5 nM	5 nM	–
COc1ccc(-n2nccn2)c(C(=O)N2CCC[C@@H](C)[C@H]2CNc2ccc(C(F)(F)F)cn2)c1F [Example A338, (2-Fluoro-3-methoxy-6-(2H-1,2,3-triazol-2-yl)phenyl)((2S,3R)-3-methyl-2-(((5-(trifluoromethyl)pyridin-2-yl)amino)methyl)piperidin-1-yl)methanone]	–	–	> 5000 nM
COc1ccc(-n2nccn2)c(C(=O)N2CCC[C@@H](C)[C@H]2CNc2ncc(C(F)(F)F)cn2)c1F [Example A339, (2-Fluoro-3-methoxy-6-(2H-1,2,3-triazol-2-yl)phenyl)((2S,3R)-3-methyl-2-(((5-(trifluoromethyl)pyrimidin-2-yl)amino)methyl)piperidin-1-yl)methanone]	–	–	> 5000 nM
